Assay results from ChEMBL document CHEMBL4834454, “Rational design of cannabinoid type-1 receptor allosteric modulators: Org27569 and PSNCBAM-1 hybrids” (Bioorg Med Chem, 2021).

Sequences of proteins named here, by UniProt entry; tags and fusion partners are left off.
UniProt P21554, whole entry: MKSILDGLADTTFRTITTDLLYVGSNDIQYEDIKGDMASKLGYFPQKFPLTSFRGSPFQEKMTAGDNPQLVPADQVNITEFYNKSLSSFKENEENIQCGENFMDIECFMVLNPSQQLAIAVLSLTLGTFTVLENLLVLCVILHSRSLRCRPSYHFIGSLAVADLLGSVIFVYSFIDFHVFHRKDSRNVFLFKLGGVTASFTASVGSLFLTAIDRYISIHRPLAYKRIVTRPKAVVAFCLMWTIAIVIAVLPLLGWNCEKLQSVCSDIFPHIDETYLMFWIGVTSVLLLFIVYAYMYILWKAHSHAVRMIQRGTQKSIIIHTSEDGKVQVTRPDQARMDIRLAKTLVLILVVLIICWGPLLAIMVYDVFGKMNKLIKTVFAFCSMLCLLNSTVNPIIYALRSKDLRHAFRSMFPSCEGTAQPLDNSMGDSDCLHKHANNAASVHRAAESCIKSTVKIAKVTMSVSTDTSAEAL

Molecular target: Cannabinoid receptor 1 (Homo sapiens, UniProt P21554)
Assay: Allosteric antagonist activity at N-terminal 3HA-tagged human CB1 receptor expressed in HEK293 cells assessed as reduction in CP55940-stimulated inhibition of forskolin-induced cAMP accumulation measured for 20 mins by BRET assay
Type: functional, cell-based
Method in brief: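 HEK293 cells stably expressing 3HA-tagged hCB1, transiently transfected with CAMYEL BRET cAMP sensor, plated at 60,000 cells/well, serum-starved 30 min. Coelenterazine H 5 µM final, added 5 min before co-addition of forskolin 5 µM, CP55,940 1 µM and serially diluted modulator. BRET read at 37°C about 20 min. […] 3-parameter fit, three independent experiments.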

O=C(Nc1ccc(Cl)cc1)Nc1cccc(-c2cccc(N3CCCC3)n2)c1
pIC50: 6.4
